# According to patent publication US20040266790A1 (priority 2003, published 2004):
# Structures can show the parent of a compound that is named as a salt.
# Details: essentially pure form; +/-0.5 mg/ml; saturated solution 24 hours
smiles,measurement,value
"Cc1nc2n(c(=O)c1CCN1CCC(c3noc4cc(F)ccc34)CC1)CCCC2 [risperidone monohydrochloride, Risperidone Monohydrochloride]",water solubility in terms of the risperidone base,around 7.5 mg/ml
